By UniProt entry, the sequences of proteins in these tests, tags left out. Residues count along the entry.
UniProt P11416, 155-462 limits assumed: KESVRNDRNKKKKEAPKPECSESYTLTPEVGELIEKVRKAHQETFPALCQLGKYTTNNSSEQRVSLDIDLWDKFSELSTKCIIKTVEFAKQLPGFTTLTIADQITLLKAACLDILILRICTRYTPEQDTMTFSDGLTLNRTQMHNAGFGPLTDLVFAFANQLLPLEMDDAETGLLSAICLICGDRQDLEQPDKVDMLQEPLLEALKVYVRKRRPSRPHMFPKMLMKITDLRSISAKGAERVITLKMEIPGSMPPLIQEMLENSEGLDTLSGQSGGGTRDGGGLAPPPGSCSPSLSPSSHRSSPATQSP
UniProt P18911, 156-458 limits assumed: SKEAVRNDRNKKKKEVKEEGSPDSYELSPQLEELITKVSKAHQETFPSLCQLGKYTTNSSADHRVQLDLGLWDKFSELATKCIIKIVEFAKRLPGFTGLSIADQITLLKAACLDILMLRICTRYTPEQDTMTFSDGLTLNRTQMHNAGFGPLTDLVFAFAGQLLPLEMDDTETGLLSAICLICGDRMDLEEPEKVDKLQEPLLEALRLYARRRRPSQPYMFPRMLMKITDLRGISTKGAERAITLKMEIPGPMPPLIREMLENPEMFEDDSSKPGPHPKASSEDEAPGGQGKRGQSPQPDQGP

According to article PMC1500811, “Neofunctionalization in Vertebrates: The Example of Retinoic Acid Receptors” (PLoS Genetics, 2006):

What was measured:
mRARα = biological target: T1, mRARα (Mus musculus, UniProt P11416); test: Gal4-RAR(LBD) luciferase transactivation in Cos-1 cells; type: cell-based; conditions: agonist; one collective range given for all chordate RARs
T1 construct: gene Rara; LBD fused to Gal4 residues 1-147; in vitro translated for proteolysis

mRARγ = biological target: T2, mRARγ (Mus musculus, UniProt P18911); test: as above; type: cell-based; conditions: agonist; one collective range given for all chordate RARs
T2 construct: gene Rarg; LBD fused to Gal4 residues 1-147; in vitro translated for proteolysis

EC50 (mRARα): ~ 10^−9 to 10^−8 M
EC50 (mRARγ): ~ 10^−9 to 10^−8 M
Structure (SMILES): CC1=C(/C=C/C(C)=C/C=C/C(C)=C/C(=O)O)C(C)(C)CCC1 [ATRA]
